Laboratory results from article PMC11514582, “Leveraging the Aggregated Protein Dye YAT2150 for Malaria Chemotherapy” (Pharmaceutics, 2024).

Chains of the proteins cited; added tags and fusions are not shown.
UniProt P33261, whole entry: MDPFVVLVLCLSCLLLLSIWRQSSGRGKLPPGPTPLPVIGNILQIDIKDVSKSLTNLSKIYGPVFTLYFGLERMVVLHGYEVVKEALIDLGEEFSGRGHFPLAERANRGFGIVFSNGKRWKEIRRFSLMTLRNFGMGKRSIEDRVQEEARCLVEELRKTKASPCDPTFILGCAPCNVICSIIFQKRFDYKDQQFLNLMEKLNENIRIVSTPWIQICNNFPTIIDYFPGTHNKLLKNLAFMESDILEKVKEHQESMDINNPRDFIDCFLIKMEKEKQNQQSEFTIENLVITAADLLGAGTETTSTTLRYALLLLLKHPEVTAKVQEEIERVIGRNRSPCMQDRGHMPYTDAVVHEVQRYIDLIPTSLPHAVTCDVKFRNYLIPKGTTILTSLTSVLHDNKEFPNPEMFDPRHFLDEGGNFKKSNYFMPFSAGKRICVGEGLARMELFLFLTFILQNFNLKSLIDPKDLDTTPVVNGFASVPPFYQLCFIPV

Target: CYP2C19 (Homo sapiens, UniProt P33261)
Conditions: at 3.3 µM; tested in parallel

N[C@@H]1C[C@H]1c1ccccc1 (racemic) [Tranylcypromine]
CYP2C19 inhibition, reference compound: 43%
